Data from patent US12435128B2, “Method for predicting therapeutic effect of LSD1 inhibitor based on expression of INSM1” (TAIHO PHARMACEUTICAL CO., LTD., priority 2017, dated 2025).

Tested on: NCI-H146 cells (human small-cell lung cancer cell lines)
Assay: Cell-growth inhibition test: NCI-H146 cells
Format: cell-based
Experimental: Under the following conditions, an in vitro cell-growth inhibition test was performed with respect to HEL cells (human acute myelocytic leukemia cell lines), NCI-H1417 cells (human small-cell lung cancer cell lines), and NCI-H146 cells (human small-cell lung cancer cell lines).
The cells with the Example compound or with dimethylsulfoxide alone were cultured at 37° C. in a 5% carbon-dioxide-containing incubator for 5 days (HEL cells) or 10 days (NCI-H1417 cells and NCI-H146 cells). After culture, the plate was allowed to stand at room temperature for 30 minutes, and 100 μL of the supernatant was removed from each well to leave 100 μL of the cell culture solution. To each well containing the remaining 100 μL of the cell culture solution, the same amount of CellTiter-Glo 2.0 Assay (Promega, Cat #: G9242) was added. The microplate was shaken with a plate mixer for 1 minute and then allowed to stand in a dark place for 10 minutes. Thereafter, the luminescence intensity of viable cells in each well was measured using a microplate reader (PerkinElmer, EnSpire). […] Cell growth rate(%)=T/C×100 • T: The luminescence intensity in a well to which the test compound was added (count per second) • C: The luminescence intensity in a well to which dimethylsulfoxide alone was added (count per second)

**Q.** How did the IC50 turn out when CC(C)(O)Cn1nc(Br)c2cc(-c3ccc(C(=O)N4[C@@H]5CC[C@H]4C[C@@H](N)C5)cc3-c3ccc(C#N)c(F)c3)c(F)cc21 [Example 178, 5′-((3-endo)-3-amino-8-azabicyclo[3.2.1]octane-8-carbonyl)-2′-(3-bromo-6-fluoro-1-(2-hydroxy-2-methylpropyl)-1H-indazol-5-yl)-3-fluoro-[1,1′-biphenyl]-4-carbonitrile] was run?
**A.** 1.22 nM
